We go through one substance from US9061077B2, “Methods of determining renal function using technetium-99m tricarbonyl-nitrilotriacetic acid” (Emory University, priority 2008, dated 2015).

For the data set, the system named is plasma protein. Kind of data set: Plasma protein binding by ultrafiltration, rat plasma. The format is in vitro ADME. As to conditions: rats. As for the experimental part: Arterial blood samples were placed in capillary tubes and centrifuged to determine the hematocrit. Samples of the whole blood and packed cells (about 0.3 mL each) were pipetted into counting tubes, weighed, and counted. The percent uptake in the erythrocytes was calculated from the whole blood (counts/g) and packed cells (counts/g). Percent erythrocyte uptake=[(counts/g in erythrocytes×hematocrit)/counts/g in whole blood]. No correction was made for plasma trapped in the red blood cells sample. PPB and erythrocyte uptake were calculated in duplicate and the mean values reported.

Take “technetium-99m tricarbonyl-nitrilotriacetic acid [^99mTc(CO)3(NTA)]”: the Plasma protein binding was 67±7%.
